Data reported in EP4831167A1, “AROMATIC HETEROCYCLIC COMPOUND, AND PREPARATION METHOD THEREFOR AND USE THEREOF” (dated 2026).

By UniProt entry, the sequences of proteins in these tests, tags left out. Residues count along the entry.
UniProt P19099, 25-503 limits assumed: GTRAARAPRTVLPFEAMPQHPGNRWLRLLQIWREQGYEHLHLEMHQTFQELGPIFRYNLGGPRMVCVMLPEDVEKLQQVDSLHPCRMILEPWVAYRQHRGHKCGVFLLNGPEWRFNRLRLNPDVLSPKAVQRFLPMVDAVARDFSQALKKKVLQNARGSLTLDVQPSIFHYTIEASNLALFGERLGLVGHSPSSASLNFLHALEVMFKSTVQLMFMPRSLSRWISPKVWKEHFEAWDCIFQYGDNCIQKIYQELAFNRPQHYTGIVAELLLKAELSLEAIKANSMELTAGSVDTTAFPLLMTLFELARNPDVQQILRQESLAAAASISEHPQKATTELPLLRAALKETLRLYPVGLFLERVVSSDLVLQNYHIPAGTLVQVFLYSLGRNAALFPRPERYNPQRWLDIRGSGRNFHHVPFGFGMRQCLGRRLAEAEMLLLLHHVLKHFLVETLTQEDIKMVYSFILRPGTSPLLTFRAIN
UniProt P15538, 25-503 limits assumed: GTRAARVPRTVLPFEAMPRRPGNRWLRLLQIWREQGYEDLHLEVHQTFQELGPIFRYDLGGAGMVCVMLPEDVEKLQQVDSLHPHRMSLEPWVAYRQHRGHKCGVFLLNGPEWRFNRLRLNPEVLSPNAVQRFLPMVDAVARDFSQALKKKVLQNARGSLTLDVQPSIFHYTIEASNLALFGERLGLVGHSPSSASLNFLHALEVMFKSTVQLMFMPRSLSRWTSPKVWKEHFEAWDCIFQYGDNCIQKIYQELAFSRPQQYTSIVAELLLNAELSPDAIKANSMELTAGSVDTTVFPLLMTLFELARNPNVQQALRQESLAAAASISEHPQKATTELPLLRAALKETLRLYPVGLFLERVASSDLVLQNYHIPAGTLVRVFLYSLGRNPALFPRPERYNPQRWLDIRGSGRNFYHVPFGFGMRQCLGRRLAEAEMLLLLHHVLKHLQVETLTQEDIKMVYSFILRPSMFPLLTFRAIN

Assays:
[1] = target: human aldosterone synthase (CYP11B2) (Homo sapiens, UniProt P19099); test: Assay of human aldosterone synthase (CYP11B2) inhibition; details: G402 cell line stably overexpressing human CYP11B2; substrate 11-deoxycorticosterone (11-DOC); 24 h incubation; aldosterone in supernatant by HTRF
Description: Experimental reagents and instruments: Aldosterone kit (Cisbio, Cat#64ALDPEG); Envision plate reader (PerkinElmer).
Experimental principle and method: In humans, aldosterone synthase (CYP11B2) catalyses the conversion of 11-deoxycorticosterone (11-DOC) to aldosterone through a series of metabolic processes. In this experiment, a G402 cell line stably overexpressing-Human CYP11B2 was established in vitro (according to Valentin-Goyco J, et al. Selectivity of osilodrostat as an inhibitor of human steroidogenic cytochromes P450. J Steroid Biochem Mol Biol. 2023, 231:106316). The cells were incubated with 11-deoxycorticosterone (11-DOC) as the substrate, the test compound was added simultaneously. After co-incubation, the supernatant was collected, and aldosterone levels in the supernatant were then measured by HTRF assay. The inhibitory effect of the compound on aldosterone synthase (CYP11B2) was calculated based on aldosterone concentration.
Experimental steps: 11-Deoxycorticosterone (11-DOC) was added to the wells of a plate pre-seeded with the cells (10,000 cells/well) 24h prior to assay initiation. […] Finally, the fluorescence signal ratio at 665 nm/615 nm was measured using an Envision plate reader (PerkinElmer).
Experimental data processing method: Test data were processed and analysed using GraphPad Prism 5 software. […]

[2] = Concurrent pharmacokinetic study in cynomolgus monkeys (ACTH challenge model); details: Oral: 1 mg/kg, single dose, ACTH i.m. 1 h after dosing, plasma
Method: Experimental animals: healthy, adult male non-naive cynomolgus monkeys, aged 40-65 months.
Formulation preparation: 5% DMSO + 10% Solutol + 85% Saline (1/2/17, V/V/V). A pre-weighed quantity of the test compound was weighed and transferred to a centrifuge tube, followed by the addition of a predetermined volume of DMSO. The mixture was vortexed until a clear solution was obtained. Solutol was then added, followed by vortexing to mix thoroughly. Subsequently, physiological saline was incorporated, and the mixture was vortexed thoroughly to obtain a clear solution.
Animal model: After a 7-day acclimation period, animals received a single intramuscular injection of ACTH (ACTH challenge model). Plasma samples were collected before administration and 1 h post-injection for PD biomarker measurement.
Grouping and administration: • (1) administration route: oral (p.o.) administration; administration dose: 1 mg/kg; administration volume: 5 mL/kg; administration frequency: single dose on the day. • (2) ACTH injection method: intramuscular injection; injection time: 1 h after oral (p.o.) administration; dose: 14.5 ug/kg; injection volume: 0.1 ml/kg.
Sample collection and processing: Blood samples were collected before p.o. administration and at 15 min, 30 min, 1 h, 2 h, 4 h, 6 h, 8 h, and 24 h after p.o. administration. Approximately 0.3 mL of blood was collected from the limb veins into EDTA-K2 tubes, gently mixed by shaking, and placed in an ice-water bath. Plasma was separated by centrifugation at 2,000 × g for 10 minutes at 4°C within 30 minutes of collection. The plasma samples were stored in a refrigerator at -80°C until analysis, and the separated plasma was frozen in a refrigerator until further analysis. During sample processing, all operations were performed in an ice-water bath.
Data analysis method: Pharmacokinetic parameters after oral administration to cynomolgus monkeys were calculated using Phoenix WinNonlin software with a non-compartmental model. […]

[3] = target: 11β-hydroxylase (CYP11B1) (Homo sapiens, UniProt P15538); test: Assay of human CYP11B1 inhibition (selectivity CYP11B2/CYP11B1); details: G402-derived stable cell lines overexpressing human CYP11B1 / CYP11B2; CYP11B1: substrate 11-deoxycortisol, cortisol by HTRF
Method: Experimental reagents and instruments: Cortisol kit (Cisbio, Cat#62ALDPEG); Envision plate reader (PerkinElmer)
Experimental principle and method: In humans, 11β-hydroxylase (CYP11B1) is the key enzyme responsible for the biosynthesis of cortisol. In this experiment, a G402-derived stable cell line overexpressing human CYP11B1 was established in vitro. The cells were incubated with using 11-deoxycortisol as the substrate, and the test compound was added simultaneously. After co-incubation, the supernatant was collected, and cortisol levels in the supernatant were then measured by HTRF assay, and the inhibitory effect of the compound on 11β-hydroxylase (CYP11B1) was calculated.
Experimental steps: 11-Deoxycortisol was added to the wells of a plate pre-seeded with the cells (10,000 cells/well) 24h prior to assay initiation. […] Finally, the fluorescence signal ratio at 665 nm/615 nm was measured using an Envision plate reader (PerkinElmer).
Experimental data processing method: Test data were processed and analysed using GraphPad Prism 5 software. First, the mean reaction signal values of the high-signal control wells and low-signal control wells were calculated separately. […] The inhibition rate-concentration curve was fitted using the "log(inhibitor) vs. response - Variable slope" method in the software, and the IC50 value of the compound was calculated.

SMILES: [2H]C([2H])([2H])N1C(=O)CCc2cc(-c3cncc(N4CCN(C([2H])([2H])C(=O)NC(C)C)CC4)c3)ccc21
- IC50 [1]: < 3 nM
- AUClast [2]: 4848.33 ± 77.23 ng·h/mL
- Cmax [2]: 1250 ± 98.99 ng/mL
- Tmax [2]: 2.00 h
- Ratio of CYP11B1 IC50 to CYP11B2 IC50 [3]: B (500 ≥ B > 200)
